Measurements taken from ChEMBL document CHEMBL6087392, “Discovery of ZG-2305, an Orally Bioavailable Factor Inhibiting HIF Inhibitor for the Treatment of Obesity and Fatty Liver Disease” (J Med Chem, 2025).
Activity calls are given as the source filed them. No cut-off for these calls is given here.

Columns and labels:
Assay type in all cases: functional, organism-based
Details in all cases: time 30.0 day
Mus musculus [1] = experiment: Anti-obesity activity in male ob/ob mouse model assessed as reduction in reduction in brown adipose tissue at 30 nmol/kg, ip administered once a week for 30 days
Mus musculus [2] = experiment: Anti-obesity activity in male ob/ob mouse model assessed as reduction in reduction in liver weight at 30 nmol/kg, ip administered once a week for 30 days
Mus musculus [3] = experiment: Anti-obesity activity in male ob/ob mouse model assessed as reduction in reduction in epididymal white adipose tissue at 30 nmol/kg, ip administered once a week for 30 days
Mus musculus [4] = experiment: Anti-obesity activity in male ob/ob mouse model assessed as reduction in reduction in inguinal white adipose tissue at 30 nmol/kg, ip administered once a week for 30 days
Mus musculus [5] = experiment: Anti-obesity activity in male ob/ob mouse model assessed as reduction in body weight at 30 nmol/kg, ip administered once a week for 30 days
Mus musculus [6] = experiment: Anti-obesity activity in male ob/ob mouse model assessed as reduction in reduction in food uptake at 30 nmol/kg, ip administered once a week for 30 days
Mus musculus [7] = experiment: Anti-obesity activity in male ob/ob mouse model assessed as reduction in reduction in liver weight at 20 mg/kg, IG administered every other day for 30 days
Mus musculus [8] = experiment: Anti-obesity activity in male ob/ob mouse model assessed as reduction in reduction in epididymal white adipose tissue at 20 mg/kg, IG administered every other day for 30 days
Mus musculus [9] = experiment: Anti-obesity activity in male ob/ob mouse model assessed as reduction in reduction in inguinal white adipose tissue at 20 mg/kg, IG administered every other day for 30 days
Mus musculus [10] = experiment: Anti-obesity activity in male ob/ob mouse model assessed as reduction in weight gain at 20 mg/kg, IG administered every other day for 30 days
Mus musculus [11] = experiment: Anti-obesity activity in male ob/ob mouse model assessed as reduction in reduction in brown adipose tissue at 20 mg/kg, IG administered every other day for 30 days
Mus musculus [12] = experiment: Anti-obesity activity in male ob/ob mouse model assessed as reduction in food uptake at 20 mg/kg, IG administered every other day for 30 days

SMILES | Activity (Mus musculus [1]) | Activity (Mus musculus [2]) | Activity (Mus musculus [3]) | Activity (Mus musculus [4]) | Activity (Mus musculus [5]) | Activity (Mus musculus [6]) | Activity (Mus musculus [7]) | Activity (Mus musculus [8]) | Activity (Mus musculus [9]) | Activity (Mus musculus [10]) | Activity (Mus musculus [11]) | Activity (Mus musculus [12])
CC[C@H](C)[C@H](NC(=O)[C@H](Cc1ccccc1)NC(=O)[C@H](CCC(=O)O)NC(=O)[C@@H](CCCCNC(=O)COCCOCCNC(=O)COCCOCCNC(=O)CCC(NC(=O)CCCCCCCCCCCCCCCCC(=O)O)C(=O)O)NC(=O)[C@H](C)NC(=O)[C@H](C)NC(=O)[C@H](CCC(N)=O)NC(=O)CNC(=O)[C@H](CCC(=O)O)NC(=O)[C@H](CC(C)C)NC(=O)[C@H](Cc1ccc(O)cc1)NC(=O)[C@H](CO)NC(=O)[C@H](CO)NC(=O)[C@@H](NC(=O)[C@H](CC(=O)O)NC(=O)[C@H](CO)NC(=O)[C@@H](NC(=O)[C@H](Cc1ccccc1)NC(=O)[C@@H](NC(=O)CNC(=O)[C@H](CCC(=O)O)NC(=O)C(C)(C)NC(=O)[C@@H](N)Cc1cnc[nH]1)[C@@H](C)O)[C@@H](C)O)C(C)C)C(=O)N[C@@H](C)C(=O)N[C@@H](Cc1c[nH]c2ccccc12)C(=O)N[C@@H](CC(C)C)C(=O)N[C@H](C(=O)N[C@@H](CCCNC(=N)N)C(=O)NCC(=O)N[C@@H](CCCNC(=N)N)C(=O)NCC(=O)O)C(C)C (some centres not stated) | inactive | Active | inactive | Active | inactive | Active |  |  |  |  |  | 
CCCCCCCCCCC[C@@H](C[C@@H]1OC(=O)[C@H]1CCCCCC)OC(=O)[C@H](CC(C)C)NC=O |  |  |  |  |  |  | Active | inactive | Active | Active | inactive | Active
